System: p100/p120
Assay: p100/p120 electrophoretic mobility, primary pig brain endothelial cells (PBECs)
Assay type: cell-based
Conditions: for mobility of p100/p120: 10 minutes
Procedure: The mobility of p100 and p120 during electrophoresis is also altered by PDB-treatment in endothelial cells. The p100/p120 proteins from human umbilical vein endothelial cells (HUVECs), bovine aortic endothelial cells (BAECs) and primary pig brain endothelial cells (PBECs) were all affected by PDB-treatment. Cells were treated with or without 200 nM PDB for 30 minutes, lysed into Laemmli sample buffer, separated by electrophoresis and analysed by immunoblotting with antibodies recognising p100 and p120. […] Thus the effect of PKC activation (via PDB) on p100/p120 mobility is a widespread phenomenon.
Brain endothelial cells from pig were incubated with or without lysophosphatidic acid (LPA; 10 μM for 30 minutes). The cells were extracted and protein analyzed by gel electrophoresis and immunblotting. Each lane represents protein extracted from an individual Transwell.
MDCK strain I and II cells were provided by Barry Gumbiner (memorial Sloan-Kettering Cancer Center, NY). LLC-PK1 and Caco-2 cells were obtained from the European Collection of Animal Cell Cultures. All cells were maintained at 37° C. under 5% CO2 in humidified air. MDCK strain I and II cells were maintained in MEM containing 10% FCS, 100 U/ml penicillin, 100 μg/ml streptomycin and 2 mM L-glutamine. Caco-2 cells were maintained in MEM containing 15% FCS, 1% non-essential amino acids and 1 μg/ml bovine insulin (Sigma I-6634). LLC-PK1 cells were grown in M199 (Gibco), 10% FCS, 100 U/ml penicillin, 100 μg/ml streptomycin and 2 mM L-glutamine. For whole cell lysate analysis, 10^5 cells were plated on 6.5 mm diameter, 0.4 μm, polycarbonate Transwell filters from Costar, in 0.25 ml of medium. The basolateral chamber contained 0.75 ml of medium. For immunoprecipitation, 5×10^5 cells were plated onto 24 mm Transwell filters, in 2 ml of medium, with 3 ml of medium in the lower chamber. Cells were used 4-7 days after plating. Tissue culture materials were from Gibco. Porcine brain endothelial cells were isolated and grown by modifications of a previously published procedure (Rubin et al., 1991). Brain capillary fragments were plated on dishes coated with rat tail collagen and human fibronectin. The cultures were fed every other day with growth medium composed of 50% astrocyte-conditioned medium and 50% Dulbecco's Modified Eagle Medium containing 10% plasma-derived serum, 125 μg/ml heparin, antibiotics and glutamine. They were incubated in a humidified atmosphere of 10% CO2 at 37° C. When the endothelial cells were approximately 50% confluent (after 4-6 days in culture), they were trypsinized and plated onto collagen-coated polycarbonate Transwell filters (6.5 mm diameter, 0.4 μm pore size, tissue culture treated, Costar Corp, Cambridge, Mass., U.S.A.) in the same medium (250 μl apically, 750 μl basolaterally). After 2-3 days on filters, the medium was switched to a 1:1 mixture of astrocyte-conditioned medium and a Dulbecco's Modified Eagle Medium-based, chemically defined medium (‘N2’, Rubin et al., 1991; Bottenstein and Sato, 1979). The final concentration of plasma-derived serum was 5%. Human umbilical vein endothelial cells were from Clonetics.
Whole cell lysates were prepared by rapidly replacing the culture medium in 6.5 mm with hot Laemmli sample buffer, followed by heating at 100° C. for 5 minutes. Immunoprecipitations were carried out at 4° C. Confluent monolayers of cells were washed rapidly with ice cold PBS (containing 0.9 mM CaCl2 and 0.5 mM MgCl2) before addition of 0.5 ml of the appropriate buffer. The filters were then gently scraped, and the lysate was removed and centrifuged at 14000× g. The supernatant was precleared with 10% (w/v) protein A-Sepharose in lysis buffer for 30-60 minutes. Appropriate primary antibodies were added to the lysate, and after 2-3 hours the immunecomplex was isolated, using rabbit anti-mouse secondary antibodies (Jackson Immunoresearch Labs Inc., West Grove, Pa.) and protein A-Sepharose. […]

Row | SMILES | mobility of p100/p120 (0.3M sorbitol) | mobility of p100/p120 (0.4M mannitol) | time at which increase in p100/p120 mobility is seen (0.8M mannitol) | time for which increase in p100/p120 mobility is maintained (0.8M mannitol) | reversal of increase in p100/p120 mobility after removal (0.8M mannitol 5 minutes, then 30 minutes recovery in iso-osmotic medium) | earliest detection of increase in p100/p120 mobility (hyperosmolar mannitol, separate experiment, not shown)
1 | OC[C@@H](O)[C@@H](O)[C@H](O)[C@@H](O)CO [sorbitol] | increase in mobility |  |  |  |  | 
2 | OC[C@@H](O)[C@@H](O)[C@H](O)[C@H](O)CO [mannitol] |  | induces an increase in mobility | ≤ 5 min | 30 min | completely reversed | ≤ 30 s

From patent US6407058B1, “Modifying the permeability of physiological barriers” (Eisai Co., Limited, priority 1996, dated 2002)
